We go through 67 compounds from PubChem BioAssay AID485273 (Sanford-Burnham Center for Chemical Genomics, 2010).

The chains behind the UniProt entries cited, without tags or fusion partners.
UniProt P61088, whole entry, looked up: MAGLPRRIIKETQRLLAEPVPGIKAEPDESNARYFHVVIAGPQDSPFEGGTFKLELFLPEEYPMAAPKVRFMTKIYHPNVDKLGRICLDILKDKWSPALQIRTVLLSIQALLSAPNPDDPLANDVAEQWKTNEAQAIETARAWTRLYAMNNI

Structures are written as SMILES. The list shows a part of the results, in another mix than the full data. Activity calls are given as the source filed them. Cut-off read from the data, not from the text of the source: active = inhibition above about 45% (passing the limit was not always enough); inconclusive = no clear call, values can overlap the other calls.

The target in the assay is Ubiquitin-conjugating enzyme E2 N (Homo sapiens) (UniProt P61088). Put plainly: blockers of UBC13 ubiquitin chain synthesis – biochemical, TR-FRET, uHTS, primary screen (AID 485273). To be noted: UBC13 polyubiquitin chain formation, at 20 µM, hits give high values.
In general, inhibition refers to the change of the read-out against control, counted positive when it falls. As for `COc1cc(OC)cc(C(=O)NCC2(N3CCOCC3)CCCCC2)c1`, the inhibition was inactive: -4.6%.

Turning to `COc1cccc(C(=O)N(c2cc(C)cc(C)c2)C2CCN(C(=O)OC(C)(C)C)CC2)c1`, the inhibition was inactive: -2.8%.

For the compound `CCC(CO)(C(=O)OC1CN2CCC1CC2)c1ccccc1` (configuration not stated), the inhibition is inactive: -0.8%.

Regarding `CN1CCC(Nc2ccc(Cl)cc2)CC1`, the inhibition was inactive: 2.3%.

Consider `CCCOc1ccc(C)cc1CN(CCCl)CCCl`, for which the inhibition was inactive: 20.4%.

Turning to `CCOc1ncccc1C(=O)NCC1(N2CCOCC2)CCCCC1`, the inhibition is inactive: -7.6%.

Take `CN1CCC(Nc2ccc(F)c(Cl)c2)CC1`: the inhibition is inactive: -2.4%.

`CC(C)(C)OC(=O)N1CCC(Nc2ccccc2)CC1`: the inhibition was inactive: 4.1%.

As to `O=C(O)C1(Nc2ccccc2)CCN(Cc2ccccc2)CC1`, the inhibition was inactive: -5.4%.

Take `CCCOc1ccc(C(=O)NCC2(N(C)C)CCCCC2)cc1`: the inhibition is inactive: 5.7%.

For `CCN1CCC(Nc2cccc(F)c2)CC1`, the inhibition is inactive: 6.6%.

On to `O=C(NCC1(N2CCCCC2)CCCCC1)c1ccco1`, for which the inhibition was inactive: -4.8%.

For the compound `CN(C)c1ccc(C(=O)NCC2(N3CCCCC3)CCCCC2)cc1`, the inhibition was inactive: 2.6%.

`COc1cc(OC)cc(C(=O)NCC2(N3CCCCC3)CCCCC2)c1`: the inhibition is inactive: 4.1%.

With `Cc1ccc(C(=O)NCC2(N3CCCCC3)CCCCC2)o1`, the inhibition was inactive: -9.3%.

For `Fc1ccccc1NC1CCN(Cc2ccccc2)CC1`, the inhibition was inactive: -3.9%.

For the compound `CN(C)C1(CNC(=O)c2cccc(C#N)c2)CCCCC1`, the inhibition was inactive: -5.4%.

`c1ccc(CN2CCC(Nc3ccccc3)CC2)cc1`: the inhibition is inactive: -5.1%.

Regarding `CCCN1CCC(Nc2cc(OC)cc(OC)c2)CC1`, the inhibition is inactive: -29.4%.

Turning to `N#Cc1ccc(C(=O)NCC2(N3CCCCC3)CCCCC2)cc1`, the inhibition is inactive: 0.6%.

`CC(C)(C)OC(=O)N1CCC(N(C(=O)c2ccccc2)c2ccc(Cl)cc2)CC1`: the inhibition was inactive: 9.8%.

Consider `CCOC(=O)N1CCC(Nc2ccc(C)cc2)CC1`, for which the inhibition was inactive: 4.8%.

As for `N/C(=N\O)c1c(N)no[n+]1[O-]`, the inhibition was inactive: -3.6%.

Consider `O=C(OC1CN2CCC1CC2)C1c2ccccc2C=Cc2ccccc21` (configuration not stated), for which the inhibition is inactive: 3.3%.

For `CCc1cc(C(=O)NCC2(N3CCCCC3)CCCCC2)sc1C`, the inhibition was inactive: 1.5%.

As for `COc1cc(C(=O)NCC2(N3CCOCC3)CCCCC2)cc(OC)c1C`, the inhibition was inactive: 9.7%.

In the case of `O=C(NCC1(N2CCOCC2)CCCCC1)c1cc(Br)ccc1Cl`, the inhibition is inactive: -8.3%.

For `COc1ccc(C(=O)NCC2(N3CCOCC3)CCCCC2)cc1OC`, the inhibition was inactive: 8.3%.

As to `O=C(NCC1(N2CCCCC2)CCCCC1)c1cncc(Br)c1`, the inhibition was inactive: 3.7%.

As for `CN1CCC(Nc2cccc(F)c2)CC1`, the inhibition was inactive: 16%.

Turning to `CC(C)c1ccc(NC2CCN(C(=O)OC(C)(C)C)CC2)cc1`, the inhibition was inactive: 4.1%.

For the compound `COc1ccc(CN(CCCl)CCCl)cc1Cl`, the inhibition was inactive: 18%.

With `CN(C)c1cccc(C(=O)NCC2(N3CCCCC3)CCCCC2)c1`, the inhibition is inactive: 4.2%.

Turning to `COc1cc(OC)c(C(=O)NCC2(N(C)C)CCCCC2)cc1OC`, the inhibition was inactive: 1%.

With `O=C(NCC1(N2CCOCC2)CCCCC1)c1cc(F)c(F)cc1Cl`, the inhibition is inactive: -1.7%.

In the case of `O=C(NCC1(N2CCCCC2)CCCCC1)c1cccc(C(F)(F)F)c1`, the inhibition is inactive: 7.5%.

In the case of `COc1cc(C(=O)NCC2(N3CCCCC3)CCCCC2)ccc1OC(F)F`, the inhibition was inactive: 4.8%.

Take `O=C(NCC1(N2CCOCC2)CCCCC1)c1cc(=O)[nH]c2ccccc12`: the inhibition was inactive: -12.4%.

For `CN1CCN(CCOC(=O)C(O)(c2ccccc2)c2ccccc2)CC1`, the inhibition is inactive: 7.3%.

`CC(C)c1ccc(C(=O)NCC2(N3CCOCC3)CCCCC2)cc1`: the inhibition is inactive: -14%.

Regarding `COc1ccc(NC2CCN(C(=O)OC(C)(C)C)CC2)cc1`, the inhibition was inactive: -4.7%.

For `O=C(NCC1(N2CCCCC2)CCCCC1)c1ccc(OC(F)F)cc1`, the inhibition was inactive: -5.2%.

`CCN1CCC(Nc2ccc(Cl)cc2)CC1`: the inhibition is inactive: 2.3%.

For `N#CC1(Nc2ccccc2)CCN(CCc2ccccc2)CC1`, the inhibition was inactive: 7.8%.

As for `O=C(NCC1(N2CCCCC2)CCCCC1)c1cccc([N+](=O)[O-])c1`, the inhibition was inactive: 6.7%.

Consider `CSc1ccc(C(=O)NCC2(N3CCOCC3)CCCCC2)cc1`, for which the inhibition was inactive: 1%.

For the compound `CCOC(=O)N1CCC(Nc2cccc(C)c2)CC1`, the inhibition was inactive: -6.9%.

Regarding `Cc1ccc(OCC(C)C)c(CN(CCCl)CCCl)c1`, the inhibition is inactive: 19.7%.

Consider `CCOc1ccc(C)cc1CN(CCCl)CCCl`, for which the inhibition was inactive: 19.2%.

For `O=C(NCC1(N2CCCCC2)CCCCC1)c1ccc(F)cc1`, the inhibition is inactive: -14.3%.

`CCCCOc1ccc(C(=O)NCC2(N3CCOCC3)CCCCC2)cc1`: the inhibition is inactive: -11.9%.

In the case of `COc1ccc(NC2CCN(CCc3ccccc3)CC2)c(OC)c1`, the inhibition was inactive: -7.8%.

As for `CCOC(=O)N1CCC(Nc2ccc(F)cc2)CC1`, the inhibition is inactive: -7%.

On to `O=C(NCC1(N2CCCCC2)CCCCC1)c1ccc(Cl)nc1`, for which the inhibition is inactive: -1.5%.

Consider `Cc1cc(C)cc(N(C(=O)c2ccccc2)C2CCN(C(=O)OC(C)(C)C)CC2)c1`, for which the inhibition is inactive: 3.4%.

`O=C(NCC1(N2CCOCC2)CCCCC1)c1cc2ccccc2o1`: the inhibition was inactive: 3.8%.

For `O=C(OC1CN2CCC1CC2)C1c2ccccc2Oc2ccccc21` (configuration not stated), the inhibition was inactive: -5.2%.

`O=C(NCC1(N2CCCCC2)CCCCC1)c1ccc(Cl)s1`: the inhibition was inactive: 9.6%.

For `N#CC1(Nc2ccccc2)CCN(Cc2ccccc2)CC1`, the inhibition was inactive: 1.7%.

As for `COc1ccc(Cl)cc1C(=O)NCC1(N2CCOCC2)CCCCC1`, the inhibition is inactive: 1.9%.

With `CCOC(=O)N1CCC(Nc2ccc(OC)cc2)CC1`, the inhibition is inactive: -9.4%.

On to `COc1ccc(C(=O)NCC2(N3CCCCC3)CCCCC2)cc1`, for which the inhibition is inactive: 4.1%.

With `CC(C)(C)OC(=O)N1CCC(N(C(=O)c2ccccc2)c2ccc(F)cc2)CC1`, the inhibition is inactive: 6.8%.

With `COc1ccc(C(=O)NCC2(N3CCCCC3)CCCCC2)c(OC)c1OC`, the inhibition was inactive: -1.3%.

Consider `O=C(NCC1(N2CCCCC2)CCCCC1)c1ccc(=O)[nH]c1`, for which the inhibition was inactive: 1.7%.

`O=C(NCC1(N2CCCCC2)CCCCC1)c1cccs1`: the inhibition was inactive: 10.4%.

Take `CSc1ccccc1C(=O)NCC1(N2CCCCC2)CCCCC1`: the inhibition was inactive: -0.5%.
